Broadly, the inhibition is the change of the read-out against control, counted positive when it falls.

Chains of the proteins cited; added tags and fusions are not shown. Lines headed by an entry give the natural chain unless they say otherwise; changes in a name come on top.
UniProt O75385: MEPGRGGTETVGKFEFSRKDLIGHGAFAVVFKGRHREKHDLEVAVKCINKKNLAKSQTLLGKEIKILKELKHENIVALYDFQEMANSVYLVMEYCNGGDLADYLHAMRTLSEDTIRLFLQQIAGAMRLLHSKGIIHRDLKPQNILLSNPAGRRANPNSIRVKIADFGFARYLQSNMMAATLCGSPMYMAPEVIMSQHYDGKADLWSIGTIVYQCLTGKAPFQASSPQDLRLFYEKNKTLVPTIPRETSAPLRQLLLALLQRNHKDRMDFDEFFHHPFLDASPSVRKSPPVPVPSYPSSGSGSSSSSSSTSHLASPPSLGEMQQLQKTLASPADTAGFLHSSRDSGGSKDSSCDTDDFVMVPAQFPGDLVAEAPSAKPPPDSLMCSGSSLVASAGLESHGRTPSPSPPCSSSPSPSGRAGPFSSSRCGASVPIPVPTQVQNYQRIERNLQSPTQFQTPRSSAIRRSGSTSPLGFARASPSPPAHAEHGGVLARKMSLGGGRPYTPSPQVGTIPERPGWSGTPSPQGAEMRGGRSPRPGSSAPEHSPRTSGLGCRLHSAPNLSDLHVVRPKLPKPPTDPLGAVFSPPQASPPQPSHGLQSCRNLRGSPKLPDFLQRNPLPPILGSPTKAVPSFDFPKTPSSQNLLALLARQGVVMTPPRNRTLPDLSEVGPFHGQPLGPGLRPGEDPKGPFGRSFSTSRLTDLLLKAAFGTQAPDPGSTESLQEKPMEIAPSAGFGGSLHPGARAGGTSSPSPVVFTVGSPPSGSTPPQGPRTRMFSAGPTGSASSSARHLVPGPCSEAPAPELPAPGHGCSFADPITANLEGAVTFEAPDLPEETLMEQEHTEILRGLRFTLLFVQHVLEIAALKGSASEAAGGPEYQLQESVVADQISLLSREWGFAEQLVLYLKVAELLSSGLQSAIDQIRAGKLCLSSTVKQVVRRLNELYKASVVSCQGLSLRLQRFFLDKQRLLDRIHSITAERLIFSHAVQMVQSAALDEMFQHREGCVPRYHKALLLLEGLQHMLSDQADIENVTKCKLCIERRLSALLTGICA

The list shows a part of the results, in another mix than the full data. The source made the active and inactive calls. No stated cut-off is given here; in the data, active means inhibition above about 43%; inactive means the rest.

The experiment deals with Serine/threonine-protein kinase ULK1 (Homo sapiens) (UniProt O75385). The experiment can be described thus: ULK1 kinase inhibitors, primary screen, biochemical, AlphaScreen (AID 1259251).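 Further: 0% = median of compound wells and 100% = no enzyme.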 The conditions noted are these: AlphaScreen Atg13 phosphorylation by ULK1, luminescence; at 5.96 µM; stronger effect = higher value. In general terms: Alpha assays give light when donor and acceptor beads are brought close together.
In the case of `O=P1(N(CCCl)CCCl)OCCCN1CCCl` (stereo not given), the inhibition is inactive: 16.2%.

Regarding `NC(=O)Nc1ccc([As](=O)(O)O)cc1`, the inhibition is inactive: 9.97%.

On to `CN[C@@H]1C[C@H]2O[C@@](C)([C@@H]1OC)n1c3ccccc3c3c4c(c5c6ccccc6n2c5c31)C(=O)NC4`, for which the inhibition was inactive: -3.03%.

With `CN(C(=O)Cc1ccc(Cl)c(Cl)c1)[C@H]1CC[C@@]2(CCCO2)C[C@@H]1N1CCCC1`, the inhibition was inactive: -4.17%.

For `O=C(NNc1ccc([N+](=O)[O-])cc1[N+](=O)[O-])c1cccc([N+](=O)[O-])c1`, the inhibition was inactive: 18.8%.

For `O=C(OC1CN2CCC1CC2)c1ccccc1` (stereo not given), the inhibition is inactive: 3.37%.

As for `O=C(Nc1ccccc1[N+](=O)[O-])c1ccc([N+](=O)[O-])cc1[N+](=O)[O-]`, the inhibition was inactive: -17.1%.

Regarding `O=P(O)(O)F`, the inhibition was inactive: 10.7%.

`O=P(Nc1ccccn1)(OCC(F)(F)F)Oc1ccccc1` (stereo not given): the inhibition is inactive: 10.9%.

As for `O=[N+]([O-])c1cc(/C=N/N=C/c2cc([N+](=O)[O-])cc([N+](=O)[O-])c2O)c(O)c([N+](=O)[O-])c1`, the inhibition was inactive: 25.5%.

For the origin of these results see PubChem BioAssay AID1259251 (The Scripps Research Institute Molecular Screening Center, 2017).
